{"source": "patent US20190192060A1", "about": "“DEVICE AND METHOD FOR BLOOD VOLUME MEASUREMENT” (Oregon Health & Science University, priority 2017, published 2019)", "origin": "cited, not measured here", "details": "in vivo; cited from earlier work", "data": [{"substance": "FITC-Dextran", "values": [{"measurement": "time remaining in circulation", "result": "24 to 48", "unit": "h"}]}]}
